Laboratory results published in article PMC7835878, “A Selective Competitive Inhibitor of Aldehyde Dehydrogenase 1A3 Hinders Cancer Cell Growth, Invasiveness and Stemness In Vitro” (Cancers, 2021).

Amino acid sequences for entries named in this document (tags omitted). Residues count along the entry.
UniProt P47895, 2-512 limits assumed: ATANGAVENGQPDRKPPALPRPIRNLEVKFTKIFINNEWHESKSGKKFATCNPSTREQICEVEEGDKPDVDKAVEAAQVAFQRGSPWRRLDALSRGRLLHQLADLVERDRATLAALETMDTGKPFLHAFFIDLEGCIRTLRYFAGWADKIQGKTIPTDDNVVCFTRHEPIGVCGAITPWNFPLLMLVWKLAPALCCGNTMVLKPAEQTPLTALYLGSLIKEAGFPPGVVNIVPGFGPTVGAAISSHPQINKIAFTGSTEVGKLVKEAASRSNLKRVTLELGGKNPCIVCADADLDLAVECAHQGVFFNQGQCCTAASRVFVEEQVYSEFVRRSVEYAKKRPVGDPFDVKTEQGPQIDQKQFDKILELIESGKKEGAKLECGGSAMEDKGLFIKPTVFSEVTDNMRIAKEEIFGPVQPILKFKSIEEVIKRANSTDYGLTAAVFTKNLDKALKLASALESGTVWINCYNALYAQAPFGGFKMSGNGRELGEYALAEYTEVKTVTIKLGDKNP

Molecular target: Aldehyde dehydrogenase 1A3 (ALDH1A3) (Homo sapiens, UniProt P47895)
Test: X-ray co-crystal structure ([…] Å) plus enzyme inhibition kinetics on recombinant human ALDH1A3 (IC50 […])

- Ki: 3.7 µM
SMILES: N#Cc1cccc(-c2ccc3nc(-c4ccccc4)cn3c2)c1
